These results are taken from ChEMBL document CHEMBL1152751, “2,5-Disubstituted tetrahydrofurans as selective serotonin re-uptake inhibitors” (Bioorg Med Chem, 2009).

Protein sequences, listed by entry. Tags and fused reporters are not part of them.
UniProt P23975, whole entry: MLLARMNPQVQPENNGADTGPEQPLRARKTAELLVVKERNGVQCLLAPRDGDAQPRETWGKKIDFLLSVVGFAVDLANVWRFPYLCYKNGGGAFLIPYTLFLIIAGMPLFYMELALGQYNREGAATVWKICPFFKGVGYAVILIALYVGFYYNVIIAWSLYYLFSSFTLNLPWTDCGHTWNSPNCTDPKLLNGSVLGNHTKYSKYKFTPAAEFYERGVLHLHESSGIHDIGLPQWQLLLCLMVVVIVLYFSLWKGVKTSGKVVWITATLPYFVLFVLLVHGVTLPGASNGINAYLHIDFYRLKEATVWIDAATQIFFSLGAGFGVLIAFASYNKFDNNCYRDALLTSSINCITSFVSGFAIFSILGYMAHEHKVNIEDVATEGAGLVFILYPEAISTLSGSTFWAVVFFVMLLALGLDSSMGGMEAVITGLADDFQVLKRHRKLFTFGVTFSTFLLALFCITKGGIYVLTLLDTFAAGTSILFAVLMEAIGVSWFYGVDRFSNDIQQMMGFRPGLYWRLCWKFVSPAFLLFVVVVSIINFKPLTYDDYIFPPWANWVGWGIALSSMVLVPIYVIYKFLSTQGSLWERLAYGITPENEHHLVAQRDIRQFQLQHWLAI

In series [1] the target is T1, Sodium-dependent noradrenaline transporter (Homo sapiens, UniProt P23975). Nature of the series: Inhibition of [3H]norepinephrine reuptake at human NET expressed in HEK cells. The series is classed as cell-based, HEK293.
For series [2], the target named is T1, Sodium-dependent noradrenaline transporter. The series is described as follows: biochemical. The series is classed as cell-based, HEK293.
Series [3] relates to Liver microsomes. Nature of the series: Metabolic stability assessed as half life in rat liver microsomes. The series is classed as ADME, Microsome.

Where only a bound is given, the exact number is not on record here.

Usually IC50 stands for the concentration at which inhibition is half-maximal. By Ki is commonly meant the dissociation constant of the complex between target and ligand, obtained from inhibition or displacement. Low readings indicate tighter binding, high ones weaker binding. On to `COc1ccc(F)cc1[C@H]1CC[C@H](CCN)O1`, for which, in series [1], the IC50 is above 10 µM. Moreover, in series [2], the Ki stood at 27.5 µM. The corresponding values for `COc1ccc(F)cc1CCC[C@@H]1CC[C@H](CN)O1` (relative stereo) are 2.86 µM and 20.2 µM.

With `COc1ccc(F)cc1[C@@H]1CC[C@H](CCN)O1` (relative stereo), the IC50 in series [1] was above 10 µM. In series [2], the Ki is 48.9 µM.

Consider `COc1ccc(F)cc1CCC1CCC(CCN)O1` (centres undefined), for which the t1/2 in series [3] was found to be 1.77 h. In series [1], `COc1ccc(F)cc1CCC[C@H]1CC[C@H](CN)O1` (relative stereo) came in with an IC50 of 2.93 µM. This compound displayed a Ki in series [2] of 8.54 µM.
